Values quoted from earlier work as cited in patent publication US6884792B2, “Bretylium compositions and kits and their use in preventing and treating cardiovascular conditions” (priority 1999, dated 2005).

Conditions: water/octanol, relative to chloride; cited from earlier work

salicylate
organic/aqueous phase distribution constant (K): greater than 1000
